Reference: patent publication US20180340001A1, “Probes for 18F Positron Emission Tomography Imaging” (The Texas A&M University System, priority 2017, published 2018)

Key:
[1] = Hydrolytic stability monitored by 19F NMR in phosphate buffer pH 7.5; details: D2O-CD3CN (8/2 vol), pH 7.5, phosphate buffer 500 mM
[2] = Stability on exposure to ambient atmosphere; details: white powder may become an acidic oil (pH<2) after 15 min exposure to air

F[P-](F)(F)(F)(F)c1ccccc1.[K+]
time to complete hydrolysis [1]: less than 5 min | stability to ambient atmosphere [2]: hydrolysed
